Values of other authors, collected in patent US7067489B2, “Hematopoietic stimulation” (Point Therapeutics, Inc., priority 1998, dated 2006).

Chains of the proteins cited; added tags and fusions are not shown.
UniProt P27487, whole entry, species assumed: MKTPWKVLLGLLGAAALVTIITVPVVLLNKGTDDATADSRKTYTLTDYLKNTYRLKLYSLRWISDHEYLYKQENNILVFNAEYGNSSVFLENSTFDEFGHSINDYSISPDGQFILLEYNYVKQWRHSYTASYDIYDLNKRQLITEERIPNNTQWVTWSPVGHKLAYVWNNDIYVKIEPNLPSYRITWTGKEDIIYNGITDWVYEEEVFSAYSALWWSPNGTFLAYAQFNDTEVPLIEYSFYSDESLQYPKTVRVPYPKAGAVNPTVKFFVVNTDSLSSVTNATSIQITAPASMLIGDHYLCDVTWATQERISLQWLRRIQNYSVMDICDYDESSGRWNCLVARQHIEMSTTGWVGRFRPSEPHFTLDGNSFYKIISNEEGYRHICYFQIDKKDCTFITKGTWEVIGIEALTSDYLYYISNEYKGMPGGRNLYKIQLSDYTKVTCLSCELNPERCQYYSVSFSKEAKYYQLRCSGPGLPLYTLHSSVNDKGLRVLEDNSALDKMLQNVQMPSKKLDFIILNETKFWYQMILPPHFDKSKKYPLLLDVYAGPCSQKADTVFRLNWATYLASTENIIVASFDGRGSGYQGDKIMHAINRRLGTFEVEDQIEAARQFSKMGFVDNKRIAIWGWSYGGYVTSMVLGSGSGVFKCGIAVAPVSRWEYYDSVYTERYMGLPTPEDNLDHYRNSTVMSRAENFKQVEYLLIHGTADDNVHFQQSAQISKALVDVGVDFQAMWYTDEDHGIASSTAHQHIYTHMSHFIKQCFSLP

Biological target: DPP-IV (CD26) (Homo sapiens, UniProt P27487)
Conditions: background statement; cited from earlier work

## CC(C)[C@H](N)C(=O)N1CCC[C@H]1B(O)O [PT-100, valine-prolineboronic acid]
  inhibition of DPP-IV activity: potent inhibitor
